# Binding of CDR-mutated scFvs to a peptide of the spike HR2 region

Data: MIT Lincoln Laboratory AlphaSeq set, Li et al. 2023, doi:10.1038/s41467-023-39022-2, as distributed in FLAb.

Antigen: PDVDLGDISGINAS, a 14-residue peptide of the SARS-CoV-2 spike HR2 region.

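Phage display of a naive human antibody library on the peptide gave the parent. This is the validation round: designs drawn from the data on random variants, tested in the same kind of assay. Group labels follow the data file (Ctrl: baseline library sampled from a position-specific scoring matrix, with some repeated check sequences; En: ensemble of fine-tuned language models; GP: Gaussian process model; HC: hill climbing; Gen: genetic algorithm; Gibbs: Gibbs sampling; a sequence that several methods proposed may carry one label only). AlphaSeq pools MATa yeast showing the antibodies with MATalpha yeast showing the peptide. Mating (16 h, 30 °C) was followed by selection of diploids and sequencing of their barcodes. Each replicate has its own calibration line, from reference interactions of the BCL2 family. Mating was done six times.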

Ab-14 is the parent antibody, in scFv form: VH, then a (GGGGS)3 linker, then VL. The heavy chain is unchanged in all variants.
VH: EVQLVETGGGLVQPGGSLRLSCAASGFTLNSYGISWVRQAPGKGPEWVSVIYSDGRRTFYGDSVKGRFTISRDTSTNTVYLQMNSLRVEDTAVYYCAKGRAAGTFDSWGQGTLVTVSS
VL: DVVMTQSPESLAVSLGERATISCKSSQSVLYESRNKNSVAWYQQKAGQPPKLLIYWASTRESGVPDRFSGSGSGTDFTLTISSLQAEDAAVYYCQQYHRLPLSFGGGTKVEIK

Sequences are complete VL domains. Variants here have more than six changes. Affinities are written as log10 Kd with Kd in nM; a lower number is a better binder. The mean shown is taken over the replicates in which the pair was detected. A pair that was not seen in that replicate is written "nd"; this usually means weak binding, but a binder can also be missed. The list is sorted by this average, lowest first, undetected variants last.

* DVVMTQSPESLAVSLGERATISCKLASVTGTEKVHGNNVAWYQQKAGQPPKLLIYEMETRERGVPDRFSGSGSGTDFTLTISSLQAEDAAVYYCQQYNRLPLSFGGGTKVEIK [En_Gen]: -0.04, -0.18, -0.26, -0.56, -0.20, -0.05 (mean -0.22)
* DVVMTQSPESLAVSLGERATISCLLSQQNLYESRNKNSVAWYQQKAGQPPKLLIYNASQRLSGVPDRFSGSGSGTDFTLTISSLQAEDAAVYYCQQYHRLPLSFGGGTKVEIK [GP_Gibbs]: 0.13, -0.03, -0.05, -0.14, 0.13, 0.25 (mean 0.05)
* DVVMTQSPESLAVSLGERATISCKSQQSWEYGSRNKNSVAWYQQKAGQPPKLLIYNASQREDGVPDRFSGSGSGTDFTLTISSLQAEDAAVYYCQQYHRLPLSFGGGTKVEIK [GP_Gibbs]: 0.14, 0.08, -0.03, 0.06, 0.08, 0.22 (mean 0.09)
* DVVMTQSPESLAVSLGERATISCIIDQIMYHGNKHANSIAWYQQKAGQPPKLLIYQASERLNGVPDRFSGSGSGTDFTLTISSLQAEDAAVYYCQQYHHLPLTFGGGTKVEIK [En_Gen]: 0.16, -0.30, 0.34, -0.16, 0.27, 0.27 (mean 0.09)
* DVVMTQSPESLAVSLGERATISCKLSQSGLYGERNKMSVAWYQQKAGQPPKLLIYQASQRESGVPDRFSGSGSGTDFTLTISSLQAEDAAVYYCQQYHRLPLSFGGGTKVEIK [GP_Gibbs]: 0.27, 0.40, 0.22, -0.33, 0.25, 0.08 (mean 0.15)
* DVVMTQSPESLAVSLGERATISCHISMMVGTKGYHKNSVAWYQQKAGQPPKLLIYNAETREDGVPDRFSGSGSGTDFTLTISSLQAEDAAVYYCQQYHRLPLSFGGGTKVEIK [En_HC]: 0.15, 0.25, 0.13, 0.15, 0.28, 0.21 (mean 0.19)
* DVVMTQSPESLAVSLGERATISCHIDILNRGETLKKDDIAWYQQKAGQPPKLLIYNADHREQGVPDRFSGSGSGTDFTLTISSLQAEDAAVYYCQQYFHLPLAFGGGTKVEIK [En_Gibbs]: 0.31, 0.33, 0.09, 0.01, 0.33, 0.39 (mean 0.24)
* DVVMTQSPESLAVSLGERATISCALSQSMDMTSRNKNSVAWYQQKAGQPPKLLIYDLTTRLNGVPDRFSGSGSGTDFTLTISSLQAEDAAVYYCQQYHRLPLSFGGGTKVEIK [En_HC]: 0.22, 0.32, 0.37, 0.06, 0.32, 0.44 (mean 0.29)
* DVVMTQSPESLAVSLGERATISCKLQSLEQYESRWKNSVAWYQQKAGQPPKLLIYSASTRESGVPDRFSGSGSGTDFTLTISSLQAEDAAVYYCQQYHRLPLSFGGGTKVEIK [GP_Gibbs]: 0.52, 0.31, 0.52, 0.31, 0.20, 0.54 (mean 0.40)
* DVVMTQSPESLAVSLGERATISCTISMLMNHMTRNSNNVAWYQQKAGQPPKLLIYNMDMREAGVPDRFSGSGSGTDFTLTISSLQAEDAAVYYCQQYDRLPLSFGGGTKVEIK [En_Gen]: 0.31, 0.54, 0.42, 0.18, 0.37, 0.60 (mean 0.40)
* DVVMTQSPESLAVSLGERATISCSLMQVGGYESNQHNSIAWYQQKAGQPPKLLIYDLRTRESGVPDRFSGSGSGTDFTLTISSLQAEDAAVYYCQQYHRLPLSFGGGTKVEIK [En_HC]: 0.63, 0.41, 0.45, 0.34, 0.68, 0.32 (mean 0.47)
* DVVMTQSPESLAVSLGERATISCKVSPSMLGEERNKNSVAWYQQKAGQPPKLLIYSASTRENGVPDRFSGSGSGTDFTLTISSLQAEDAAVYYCQQYHRLPLSFGGGTKVEIK [GP_Gibbs]: 0.40, 0.59, 0.50, 0.34, 0.05, 1.22 (mean 0.52)
* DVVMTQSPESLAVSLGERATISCKLDSAYQHGTNQKSAMAWYQQKAGQPPKLLIYSASVSTQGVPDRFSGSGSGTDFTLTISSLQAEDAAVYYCQQYSRLPLSFGGGTKVEIK [En_Gibbs]: 0.66, 0.85, 0.36, 0.76, 0.53, 0.74 (mean 0.65)
* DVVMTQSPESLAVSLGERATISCKIEQSLFPYGPSWHSVAWYQQKAGQPPKLLIYNANTLLAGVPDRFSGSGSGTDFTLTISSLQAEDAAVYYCQQYYMLPLMFGGGTKVEIK [En_Gibbs]: 0.97, 0.64, 0.79, 0.83, 0.69, 0.77 (mean 0.78)
* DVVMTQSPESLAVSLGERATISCQLFHRWGQLEEISYAVAWYQQKAGQPPKLLIYDATTVIDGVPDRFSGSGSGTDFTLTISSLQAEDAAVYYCQQYMHLPLTFGGGTKVEIK [En_Gibbs]: 1.04, 0.79, 0.72, 0.42, 0.62, 1.15 (mean 0.79)
* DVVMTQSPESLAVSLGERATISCKISFQYRYEQLSKNNIAWYQQKAGQPPKLLIYEAQTRLKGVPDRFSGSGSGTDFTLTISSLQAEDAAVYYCQQYHRLPLSFGGGTKVEIK [En_HC]: 0.95, 0.72, 0.87, 0.82, 0.85, 0.95 (mean 0.86)
* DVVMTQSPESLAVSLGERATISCILSQMMLTAGNKHNSVAWYQQKAGQPPKLLIYQANYRESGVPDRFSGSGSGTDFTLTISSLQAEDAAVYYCQQYHRLPLSFGGGTKVEIK [En_HC]: 2.33, 1.41, 2.22, 1.45, 1.31, 1.68 (mean 1.73)
* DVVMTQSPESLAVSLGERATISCSLMQVGGYESNVHNSIAWYQQKAGQPPKLLIYDLRTRESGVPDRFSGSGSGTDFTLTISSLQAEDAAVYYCQQYHRLPLSFGGGTKVEIK [En_HC]: nd, nd, 1.86, 1.34, nd, 2.00 (mean 1.73)
* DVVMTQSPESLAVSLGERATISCHLGLVTMLEETVRNSVAWYQQKAGQPPKLLIYNNSTREEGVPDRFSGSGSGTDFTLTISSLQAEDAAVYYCQQYDRLPLSFGGGTKVEIK [En_Gen]: 1.43, 1.77, 1.51, 2.75, 1.52, 1.76 (mean 1.79)
* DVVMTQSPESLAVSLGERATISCNLGYQQDGNGLQRQAVAWYQQKAGQPPKLLIYNVTMKEYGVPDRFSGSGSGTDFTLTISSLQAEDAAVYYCQYYGRLPLMFGGGTKVEIK [En_Gibbs]: 1.99, 1.45, 2.53, 2.02, 2.48, 1.93 (mean 2.07)
* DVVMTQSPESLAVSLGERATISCKLQVLKLYWSRNKNSVAWYQQKAGQPPKLLIYEASTRESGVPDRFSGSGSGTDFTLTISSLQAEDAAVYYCQQYHRLPLSFGGGTKVEIK [GP_Gibbs]: nd, 2.22, 2.33, 2.25, 3.74, 3.10 (mean 2.73)
* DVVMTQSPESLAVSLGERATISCKLFDRTMEGIANQNAVAWYQQKAGQPPKLLIYEDNDVSVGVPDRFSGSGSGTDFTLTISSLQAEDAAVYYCQQYSILPLTFGGGTKVEIK [En_Gibbs]: nd, nd, nd, nd, nd, nd
* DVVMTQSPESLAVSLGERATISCKVSEFMKGLMMRTDSIAWYQQKAGQPPKLLIYDNTTRGSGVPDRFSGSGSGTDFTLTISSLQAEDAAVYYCQQYDRLPLSFGGGTKVEIK [En_Gen]: nd, nd, nd, nd, nd, nd
* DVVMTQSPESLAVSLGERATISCKIELGLTRYNNGYSAVAWYQQKAGQPPKLLIYNETQKANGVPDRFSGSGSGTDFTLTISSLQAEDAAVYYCQQYSRLPLVFGGGTKVEIK [En_Gibbs]: nd, nd, nd, nd, nd, nd
* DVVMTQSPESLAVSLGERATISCKSSQSGLYESREKNSVAWYQQKAGQPPKLLIYNASVRESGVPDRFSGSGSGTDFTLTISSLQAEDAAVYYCQIYARWPGSFGGGTKVEIK [Ctrl]: nd, nd, nd, nd, nd, nd

The opening 2 entries, copied out:

VL	group	log10 Kd (nM) by replicate	mean, log10 nM
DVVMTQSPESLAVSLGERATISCKLASVTGTEKVHGNNVAWYQQKAGQPPKLLIYEMETRERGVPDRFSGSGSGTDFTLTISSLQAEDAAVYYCQQYNRLPLSFGGGTKVEIK	En_Gen	-0.04, -0.18, -0.26, -0.56, -0.20, -0.05	-0.22
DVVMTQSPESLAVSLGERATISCLLSQQNLYESRNKNSVAWYQQKAGQPPKLLIYNASQRLSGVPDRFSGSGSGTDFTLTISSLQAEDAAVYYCQQYHRLPLSFGGGTKVEIK	GP_Gibbs	0.13, -0.03, -0.05, -0.14, 0.13, 0.25	0.05

Values of this round are not directly comparable with the first-round values of the same sequences. The parent sequence was in this pool as ten entries: three were never detected, three once, and four in most replicates, with averages from 0.34 to 2.37. The authors' rule: three or more of the six replicates give a measured affinity, fewer mean a poor binder. Nonspecific signal, from three strains lacking the peptide, appeared in 4% of pairings of all light chain designs, centred on 2.64 (5% of these signals below 1.59); values are not corrected for it.